Measured values from patent US20220016092A1, “METHODS FOR TREATING SYMPTOMS AND DISORDERS ASSOCIATED WITH LYSOSOMAL STORAGE DISEASES” (GENZYME CORPORATION, priority 2019, published 2022).

Tests used:
Type in all cases: in vivo, human
[1] = Study 1 Part 2: pharmacokinetics with and without a high-fat meal; settings: healthy men, single oral 5 mg dose
Excerpt: (§1) Study 1 was a 2-part single-center trial in healthy adult male volunteers. Part 1 was a double-blind, randomized, placebo-controlled sequential ascending single-dose study of Compound 2 for safety, tolerability, and PK. Part 2 was an open-label, single-cohort, randomized, 2-sequence, 2-period, 2-treatment crossover study of Compound 2 for PK with and without a high-fat meal.
(§2) Part 1 of the study enrolled and randomized 55 healthy men (placebo, n=14; 2-, 5-, 15, 25-, 50, and 100-mg doses, n=6 each; 150-mg dose, n=5). Eight healthy men participated in Part 2.
(§3) In Part 1 the subjects were randomized to receive 2, 5, 15, 25, 50, 100, or 150 mg of Compound 2 (L-malic salt form) or matching placebo on the morning of the first day after at least a 10-hour fast. In Part 2, the subjects were randomized to receive a single oral dose of 5 mg Compound 2 either while fasting (at least 10 hours before and 4 hours after administration) or 30 minutes after a standardized high-fat breakfast (˜815 kcal). After a 7-day washout period, participants were crossed over to the other condition.
In Study 1, Part 2, blood was sampled for plasma concentrations if Compound 2 at 0, 0.5, 1, 2, 3, 4, 5, 6, 8, 10, 12, 16, 24, and 48 hours post-dose.

[2] = Study 1 Part 1: ascending single-dose pharmacokinetics in healthy volunteers; settings: healthy men, single oral doses 2 to 150 mg
Excerpt: as §1, §2
as §3, with “After a 7-day washout period, participants were crossed over to the other condition.” left out
In Study 1, Part 1, blood was sampled for plasma concentrations of Compound 2 at the time of study drug administration (0 hour) and 0.5, 1, 2, 3, 4, 5, 6, 8, 10, 12, 16, 24, 48, 72, and 96 hours post-dose. Urine samples were collected for analysis of Compound 2 concentrations beginning 2 hours before study drug administration through 48 hours afterward.

[3] = Study 2: ascending repeated-dose pharmacokinetics in healthy volunteers; settings: healthy adults; for CLss/F, Mean (SD): Day 14 (N = 9)

CC(C)(NC(=O)O[C@@H]1CN2CCC1CC2)c1csc(-c2ccc(F)cc2)n1 [Compound 2, (S)-quinuclidin-3-yl 2-(2-(4-fluorophenyl)thiazol-4-yl)propan-2-ylcarbamate]
Fed/fasted geometric mean ratio, AUClast [1]: 0.91 | Fed/fasted geometric mean ratio, Cmax [1]: 0.92 | Fold increase in geometric mean AUCinf for a 75-fold dose increase [2]: 85.9 fold | Fold increase in geometric mean AUClast for a 75-fold dose increase [2]: 89.2 fold | Fold increase in geometric mean Cmax for a 75-fold dose increase [2]: 97.3 fold | CLss/F, Mean (SD) ([3]; 5 mg once daily): 5.98 (1.17) L/h | CLss/F, Mean (SD) ([3]; 10 mg once daily): 5.13 (1.25) L/h | CLss/F, Mean (SD) ([3]; 20 mg once daily): 6.58 (1.70) L/h | Fold increase in geometric mean AUC0-24 for a 4-fold dose increase ([3]; 5-20 mg once daily, Day 14): 3.69 fold | Fold increase in geometric mean Cmax for a 4-fold dose increase ([3]; 5-20 mg once daily, Day 14): 3.76 fold | Fold by which CLR(0-24) is lower than observed plasma CL/F ([3]; after 14 once-daily doses of 5, 10 or 20 mg): 3.18-3.86 fold
